Source: ChEMBL document CHEMBL1134890, “Preparation of oxime dual NK(1)/NK(2) antagonists with reduced NK(3) affinity” (Bioorg Med Chem Lett, 2002)

Amino acid sequences for entries named in this document (tags omitted).
UniProt P25103, whole entry: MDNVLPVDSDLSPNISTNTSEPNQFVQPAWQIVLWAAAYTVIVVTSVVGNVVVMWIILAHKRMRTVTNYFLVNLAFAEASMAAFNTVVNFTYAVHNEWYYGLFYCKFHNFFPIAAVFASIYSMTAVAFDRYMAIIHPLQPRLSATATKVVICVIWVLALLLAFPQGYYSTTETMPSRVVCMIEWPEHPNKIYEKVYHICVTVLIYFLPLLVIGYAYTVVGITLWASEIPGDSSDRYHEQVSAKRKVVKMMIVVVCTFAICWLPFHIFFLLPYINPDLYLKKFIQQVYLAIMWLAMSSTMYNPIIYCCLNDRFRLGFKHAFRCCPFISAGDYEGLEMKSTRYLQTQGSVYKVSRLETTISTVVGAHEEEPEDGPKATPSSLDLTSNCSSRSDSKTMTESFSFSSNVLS
UniProt P29371, whole entry: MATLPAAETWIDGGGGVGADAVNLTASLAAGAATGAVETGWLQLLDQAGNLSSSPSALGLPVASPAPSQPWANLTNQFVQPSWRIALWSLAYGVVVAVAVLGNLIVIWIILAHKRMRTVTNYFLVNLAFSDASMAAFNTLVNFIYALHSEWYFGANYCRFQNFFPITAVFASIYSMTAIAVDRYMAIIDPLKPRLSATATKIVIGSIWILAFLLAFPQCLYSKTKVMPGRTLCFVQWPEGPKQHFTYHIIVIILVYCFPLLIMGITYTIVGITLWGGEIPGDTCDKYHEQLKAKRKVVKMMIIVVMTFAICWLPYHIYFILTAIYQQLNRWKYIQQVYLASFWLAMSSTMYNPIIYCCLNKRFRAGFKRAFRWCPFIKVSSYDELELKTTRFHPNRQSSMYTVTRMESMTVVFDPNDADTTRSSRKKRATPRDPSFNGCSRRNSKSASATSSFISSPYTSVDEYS

Tests used:
Substance-P receptor = Substance-P receptor (Homo sapiens, UniProt P25103); test: Binding affinity against recombinant human tachykinin receptor 1 in CHO cells using [3H]-Sar SP as radioligand; format: cell-based
Neuromedin-K receptor = Neuromedin-K receptor (Homo sapiens, UniProt P29371); test: Binding affinity against recombinant human tachykinin receptor 3 in CHO cells using [125I][MePhe]-NKB as radioligand; format: cell-based

## CO/N=C(\CN(C)C(=O)c1cc(Cl)cc(Cl)c1)[C@H](CCN1CCC(N2CCCN(CC(C)(C)O)C2=O)CC1)c1ccc(Cl)c(Cl)c1
Substance-P receptor
  Ki: 0.5 nM
Neuromedin-K receptor
  Ki: 0.5 nM
